Test results as given in ChEMBL document CHEMBL3352657 (J Med Chem, 2014).

Biological target: T1, Neurotensin receptor type 2 (Rattus norvegicus) (UniProt Q63384)
T1 sequence (whole entry): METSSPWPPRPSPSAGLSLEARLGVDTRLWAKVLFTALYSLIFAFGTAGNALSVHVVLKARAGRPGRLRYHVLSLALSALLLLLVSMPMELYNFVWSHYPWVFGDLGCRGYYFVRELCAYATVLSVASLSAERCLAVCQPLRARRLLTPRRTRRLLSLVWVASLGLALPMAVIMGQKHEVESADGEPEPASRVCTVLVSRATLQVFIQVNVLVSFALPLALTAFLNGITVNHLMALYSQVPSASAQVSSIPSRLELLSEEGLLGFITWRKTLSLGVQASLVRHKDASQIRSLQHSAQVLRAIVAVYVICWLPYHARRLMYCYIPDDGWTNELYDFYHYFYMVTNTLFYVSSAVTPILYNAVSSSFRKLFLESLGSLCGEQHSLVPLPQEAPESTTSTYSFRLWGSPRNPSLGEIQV
Conditions: CHO-K1, 10 uM

`Cc1ccc(S(=O)(=O)Nc2ccc3c(ccn3CC(=O)N[C@@H](CC(C)C)C(=O)O)c2)cc1` was tested. Which inhibition did it give?
The inhibition was > 50%.
